What all share (format): functional
Test [1] has as its system Osteoblast. Put plainly: Effect on transforming growth factor beta 2 gene expression in rat primary osteoblast cells assessed as expression ratio of treated to untreated control by microarray analysis.
The subject of test [2] is Osteoblast. Put plainly: Effect on transforming growth factor beta receptor 2 gene expression in rat primary osteoblast cells assessed as expression ratio of treated to untreated control by microarray analysis.
Test [3] has as its system Osteoblast. Put plainly: Effect on glyceraldehyde-3-phosphate dehydrogenase gene expression in rat primary osteoblast cells assessed as expression ratio of treated to untreated control by microarray analysis.
Test [4] concerns Osteoblast. In words: Effect on ribosomal protein L13a gene expression in rat primary osteoblast cells assessed as expression ratio of treated to untreated control by microarray analysis.
In test [5] the test system is Osteoblast. Put plainly: Effect on procollagen 19-alpha 1 gene expression in rat primary osteoblast cells assessed as expression ratio of treated to untreated control by microarray analysis.
Test [6] has as its system Osteoblast. Put plainly: Effect on fibroblast growth factor 3 gene expression in rat primary osteoblast cells assessed as expression ratio of treated to untreated control by microarray analysis.
In test [7] the test system is Osteoblast. Put plainly: Effect on procollagen 8 alpha 1 gene expression in rat primary osteoblast cells assessed as expression ratio of treated to untreated control by microarray analysis.
Test [8] has as its system Osteoblast. Put plainly: Effect on bone morphogenetic protein 4 gene expression in rat primary osteoblast cells assessed as expression ratio of treated to untreated control by microarray analysis.
Test [9] relates to Osteoblast. Put plainly: Effect on bone morphogenetic protein 7 gene expression in rat primary osteoblast cells assessed as expression ratio of treated to untreated control by microarray analysis.
Test [10] deals with Osteoblast. In words: Effect on bone morphogenetic protein receptor 1A gene expression in rat primary osteoblast cells assessed as expression ratio of treated to untreated control by microarray analysis.
Test [11] relates to Osteoblast. In words: Effect on procollagen 7 alpha 1 gene expression in rat primary osteoblast cells assessed as expression ratio of treated to untreated control by microarray analysis.
The subject of test [12] is Osteoblast. Put plainly: Effect on procollagen 11alpha 1 gene expression in rat primary osteoblast cells assessed as expression ratio of treated to untreated control by microarray analysis.
Test [13] concerns Osteoblast. In words: Effect on procollagen 12alpha 1 gene expression in rat primary osteoblast cells assessed as expression ratio of treated to untreated control by microarray analysis.
The test system of test [14] is Osteoblast. Put plainly: Effect on integrin alpha 3 gene expression in rat primary osteoblast cells assessed as expression ratio of treated to untreated control by microarray analysis.
The subject of test [15] is Osteoblast. Put plainly: Effect on integrin alpha M gene expression in rat primary osteoblast cells assessed as expression ratio of treated to untreated control by microarray analysis.
For test [16], the system named is Osteoblast. Put plainly: Effect on MAD homolog 9 gene expression in rat primary osteoblast cells assessed as expression ratio of treated to untreated control by microarray analysis.
In test [17] the test system is Osteoblast. Put plainly: Effect on procollagen 2 alpha 1 gene expression in rat primary osteoblast cells assessed as expression ratio of treated to untreated control by microarray analysis.

With `Oc1ccc(/C=C/c2cc(O)cc(O)c2)cc1` [RESVERATROL], the Ratio in test [1] turned out to be 1.67; in [2], 1.91; in test [3], 1.04; in [4] it was 1.04; in test [5] it was 2.02; in [6], 1.51. The Ratio in test [7] came to 3.56; in test [8] it was 3.75; in [9], 3.05; in [10], 3.05; in test [11], 2.39; in test [12], 2.64. For the same compound, the Ratio in test [13] turned out to be 3.39; in [14], 3.75; in test [15] it was 1.51; in test [16], 1.77; in test [17], 2.64.

The record behind these values is ChEMBL document CHEMBL1156469 (2007).
